One series concerns rat embryo fibroblasts. In words: electron microscopy with morphometric analysis of lysosomal changes, fibroblasts. The following applies: 72 h, 5, 25 or 90 mg/L. It is filed as cell-based.
For another series, the system named is J774 macrophages. In words: electron microscopy with morphometric analysis of lysosomal changes, macrophages. In kind it is cell-based, mouse. The following applies: 24 h, 5, 25 or 90 mg/L.

Results on one substance are retold here after PMC2386079 (Journal of Antimicrobial Chemotherapy, 2008).

Regarding Telavancin, the “percentage of cell volume occupied by overloaded lysosomes (morphometry)” value in the series with rat embryo fibroblasts and with J774 macrophages was “concentration-dependent increase” throughout.
